ChEMBL document CHEMBL1148346, “Tiplaxtinin, a novel, orally efficacious inhibitor of plasminogen activator inhibitor-1: design, synthesis, and preclinical characterization” (J Med Chem, 2004)

Target: Plasminogen activator inhibitor 1 (Homo sapiens, UniProt P05121)
Test: Binding affinity of compound towards latent Plasminogen activator inhibitor-1 expressed as apparent Kd

## O=C(O)C(=O)c1cn(Cc2ccccc2)c2ccc(-c3ccc(OC(F)(F)F)cc3)cc12 [TIPLASININ]
  Kd: 5 µM
